Earlier results in patent publication US8497287B2, “Aminotetralin compounds as mu opioid receptor antagonists” (priority 2007, dated 2013).
pKd: −log10 of the molar value.

Chains of the proteins cited; added tags and fusions are not shown.
UniProt P41143, whole entry: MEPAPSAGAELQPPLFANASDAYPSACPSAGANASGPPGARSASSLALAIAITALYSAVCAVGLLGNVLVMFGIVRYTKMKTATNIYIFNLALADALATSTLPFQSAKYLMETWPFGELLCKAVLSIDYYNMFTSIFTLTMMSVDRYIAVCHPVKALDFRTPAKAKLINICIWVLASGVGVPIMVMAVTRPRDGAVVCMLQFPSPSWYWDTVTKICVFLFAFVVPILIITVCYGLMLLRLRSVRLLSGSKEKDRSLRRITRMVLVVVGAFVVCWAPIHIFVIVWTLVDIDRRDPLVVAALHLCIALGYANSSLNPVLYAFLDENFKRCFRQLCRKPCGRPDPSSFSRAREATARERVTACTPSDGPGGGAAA

Biological target: T1, Human delta opioid receptor (hDOP) membranes (Homo sapiens, UniProt P41143)
T1 construct: purchased Perkin Elmer
Conditions: saturation analyses, purchased membranes, cited from earlier work

Substance: [^3H]-Natrindole
- reported pKd of radioligand for hDOP membranes: 9.85
- pKd (read-out: reported Kd of radioligand for hDOP membranes): 9.85
